Molecules are shown by their SMILES.

Common to all, as to conditions: SUD4
The target of experiment [1] is T1, Zinc finger and BTB domain-containing protein 11 (Homo sapiens) (UniProt O95625).
T1 sequence (whole entry): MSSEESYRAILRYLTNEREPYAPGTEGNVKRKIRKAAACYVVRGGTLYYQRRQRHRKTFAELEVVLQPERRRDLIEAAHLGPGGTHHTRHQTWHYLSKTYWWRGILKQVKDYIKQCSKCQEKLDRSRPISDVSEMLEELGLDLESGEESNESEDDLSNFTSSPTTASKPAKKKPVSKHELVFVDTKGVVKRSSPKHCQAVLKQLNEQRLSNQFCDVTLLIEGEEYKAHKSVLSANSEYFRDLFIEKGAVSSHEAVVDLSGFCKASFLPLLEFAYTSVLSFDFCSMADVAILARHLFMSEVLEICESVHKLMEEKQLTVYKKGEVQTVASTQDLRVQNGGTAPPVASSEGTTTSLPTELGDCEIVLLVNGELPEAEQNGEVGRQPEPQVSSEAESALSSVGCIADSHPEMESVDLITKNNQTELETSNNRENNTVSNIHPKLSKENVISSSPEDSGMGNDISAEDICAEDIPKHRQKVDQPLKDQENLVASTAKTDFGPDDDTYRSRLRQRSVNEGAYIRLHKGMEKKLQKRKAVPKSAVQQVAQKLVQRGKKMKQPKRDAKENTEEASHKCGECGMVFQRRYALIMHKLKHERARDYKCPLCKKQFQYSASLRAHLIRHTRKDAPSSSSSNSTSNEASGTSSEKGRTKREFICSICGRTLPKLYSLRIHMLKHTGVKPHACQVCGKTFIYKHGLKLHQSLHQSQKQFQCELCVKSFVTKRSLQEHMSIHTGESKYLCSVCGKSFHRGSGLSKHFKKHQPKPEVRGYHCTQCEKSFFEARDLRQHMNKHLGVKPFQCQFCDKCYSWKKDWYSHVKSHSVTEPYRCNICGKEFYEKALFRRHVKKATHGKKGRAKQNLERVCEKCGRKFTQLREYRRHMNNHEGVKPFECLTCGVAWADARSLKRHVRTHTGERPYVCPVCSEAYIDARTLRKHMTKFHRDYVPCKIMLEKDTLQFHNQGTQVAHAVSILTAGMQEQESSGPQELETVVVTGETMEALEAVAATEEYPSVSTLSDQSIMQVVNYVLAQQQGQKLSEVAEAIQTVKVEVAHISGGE

The target of experiment [2] is T2, Telomere zinc finger-associated protein (Homo sapiens) (UniProt P10074).
T2 sequence (whole entry): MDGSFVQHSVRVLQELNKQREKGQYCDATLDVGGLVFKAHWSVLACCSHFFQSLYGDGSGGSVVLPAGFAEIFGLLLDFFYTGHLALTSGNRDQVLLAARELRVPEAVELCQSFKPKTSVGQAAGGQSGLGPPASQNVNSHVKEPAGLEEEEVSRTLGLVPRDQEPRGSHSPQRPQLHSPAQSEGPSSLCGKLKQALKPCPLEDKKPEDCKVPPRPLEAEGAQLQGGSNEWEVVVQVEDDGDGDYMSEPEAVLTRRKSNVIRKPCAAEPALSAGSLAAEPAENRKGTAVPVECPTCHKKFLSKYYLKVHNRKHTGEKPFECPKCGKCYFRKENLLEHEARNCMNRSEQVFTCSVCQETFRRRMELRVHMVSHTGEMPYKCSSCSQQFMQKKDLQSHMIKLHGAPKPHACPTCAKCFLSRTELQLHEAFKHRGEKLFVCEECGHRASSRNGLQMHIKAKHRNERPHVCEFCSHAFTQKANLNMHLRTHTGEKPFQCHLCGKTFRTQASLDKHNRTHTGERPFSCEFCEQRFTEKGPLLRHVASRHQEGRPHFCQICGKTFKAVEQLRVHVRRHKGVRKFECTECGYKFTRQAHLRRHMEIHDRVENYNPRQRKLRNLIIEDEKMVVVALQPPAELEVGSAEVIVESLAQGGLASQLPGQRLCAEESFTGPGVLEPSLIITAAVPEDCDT

Experiment [3] has as its target T3, Zinc finger and BTB domain-containing protein 21 (Homo sapiens) (UniProt Q9ULJ3).
T3 sequence (whole entry): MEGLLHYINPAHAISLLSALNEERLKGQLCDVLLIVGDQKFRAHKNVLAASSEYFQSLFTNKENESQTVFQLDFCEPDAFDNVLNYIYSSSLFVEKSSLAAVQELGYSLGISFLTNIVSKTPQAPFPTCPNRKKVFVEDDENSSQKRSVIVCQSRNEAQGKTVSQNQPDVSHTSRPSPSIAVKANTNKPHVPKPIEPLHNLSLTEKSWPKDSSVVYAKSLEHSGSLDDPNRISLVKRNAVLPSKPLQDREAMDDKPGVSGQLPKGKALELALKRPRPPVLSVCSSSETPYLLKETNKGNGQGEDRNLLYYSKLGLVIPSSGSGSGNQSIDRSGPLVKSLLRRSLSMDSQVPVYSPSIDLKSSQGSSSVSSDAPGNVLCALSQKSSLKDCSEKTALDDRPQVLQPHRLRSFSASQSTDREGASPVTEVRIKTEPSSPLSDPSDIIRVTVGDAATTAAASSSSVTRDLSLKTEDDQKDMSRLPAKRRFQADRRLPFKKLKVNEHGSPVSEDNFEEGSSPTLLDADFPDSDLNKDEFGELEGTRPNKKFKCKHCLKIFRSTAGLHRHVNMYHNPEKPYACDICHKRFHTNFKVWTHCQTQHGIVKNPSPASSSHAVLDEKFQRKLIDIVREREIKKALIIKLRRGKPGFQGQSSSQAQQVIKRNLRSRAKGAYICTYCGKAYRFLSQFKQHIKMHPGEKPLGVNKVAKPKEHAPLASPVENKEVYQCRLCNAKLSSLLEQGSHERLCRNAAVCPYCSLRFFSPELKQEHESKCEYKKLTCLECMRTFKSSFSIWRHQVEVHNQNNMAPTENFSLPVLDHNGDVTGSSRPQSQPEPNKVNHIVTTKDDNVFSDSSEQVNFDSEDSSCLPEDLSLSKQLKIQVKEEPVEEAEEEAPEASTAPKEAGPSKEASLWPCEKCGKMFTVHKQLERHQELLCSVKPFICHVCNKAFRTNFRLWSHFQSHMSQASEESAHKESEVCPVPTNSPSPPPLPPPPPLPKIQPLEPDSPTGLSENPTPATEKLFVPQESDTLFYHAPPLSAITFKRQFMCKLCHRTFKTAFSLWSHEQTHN

Consider `C[C@@H]1CN(c2ncc(Cl)c(Nc3ccc4c(c3)n(CCC(C)(C)O)c(=O)n4C)n2)C[C@H](C)C1(F)F`, for which the figures for the Normalized abundances for DMSO in experiment [1], in experiment [2] and in experiment [3] were 2810, 1050 and 402, respectively. Also, the results for the Normalized abundances for compound in experiment [1], in experiment [2] and in experiment [3] were 2720, 1040 and 407, respectively.

These data come from ChEMBL document CHEMBL5058646 (2022).
